Measured values taken from patent US10562947B2, “Compositions and methods for preventing or treating diseases, conditions or processes characterized by aberrant fibroblast proliferation and extracellular matrix deposition” (MOERAE MATRIX, INC., priority 2011, dated 2020).

Experiments:
Experiment in all cases: Kinase Profiling Assay
Assay type in all cases: biochemical
Details in all cases: 100 μM peptide
Plk1(h) = target: T1, Plk1(h) (Homo sapiens, UniProt P53350)
T1 construct: purchased Millipore (IC50 Profiler Express service)
Description: (§1) Every kinase activity measurement was conducted in duplicate.
(§2) In addition to determining the IC50 of the compound, the specificity of MK2 inhibitory peptides was assessed by examining activities of all 266 human kinases available for testing in the Millipore kinase profiling service (Table 1).

JNK1α1(h) = target: T2, JNK1α1(h) (Homo sapiens, UniProt P45983)
T2 construct: purchased Millipore
Description: as §1, §2

Fgr(h) = Fgr(h) (Homo sapiens, UniProt P09769)
Description: as §1, §2

CLK2(h) = CLK2(h) (Homo sapiens, UniProt P49760)
Description: as §1, §2

FGFR1(V561M)(h) = FGFR1(V561M)(h) (Homo sapiens, UniProt P11362, V561M)
Description: as §1, §2

GRK5(h) = target: T3, GRK5(h) (Homo sapiens, UniProt P34947)
T3 construct: purchased Millipore
Description: as §1, §2

MKK7β(h) = target: T4, MKK7β(h) (Homo sapiens, UniProt O14733)
T4 sequence (O14733 1-419): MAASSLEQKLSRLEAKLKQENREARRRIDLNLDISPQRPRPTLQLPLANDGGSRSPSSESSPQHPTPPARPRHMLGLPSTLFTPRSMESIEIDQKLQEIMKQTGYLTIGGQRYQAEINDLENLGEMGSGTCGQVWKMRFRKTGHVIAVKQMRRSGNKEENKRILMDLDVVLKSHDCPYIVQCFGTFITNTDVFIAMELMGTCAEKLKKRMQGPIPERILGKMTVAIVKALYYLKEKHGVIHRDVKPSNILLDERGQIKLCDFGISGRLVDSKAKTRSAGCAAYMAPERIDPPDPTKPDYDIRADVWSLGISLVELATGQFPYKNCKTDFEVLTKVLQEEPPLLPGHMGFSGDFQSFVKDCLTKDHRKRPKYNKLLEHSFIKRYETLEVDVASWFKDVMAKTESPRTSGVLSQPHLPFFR
Description: as §1, §2

IGF-1R(h) = target: T5, IGF-1R(h) (Homo sapiens, UniProt P08069)
T5 construct: purchased Millipore
Description: as §1, §2

CK1γ2(h) = CK1γ2(h) (Homo sapiens, UniProt P78368)
Description: as §1, §2

CK1γ1(h) = CK1γ1(h) (Homo sapiens, UniProt Q9HCP0)
Description: as §1, §2

FGFR2(N549H)(h) = FGFR2(N549H)(h) (Homo sapiens, UniProt P21802, N549H)
Description: as §1, §2

CK2α2(h) = CK2α2(h) (Homo sapiens, UniProt P19784)
Description: as §1, §2

CK1γ3(h) = CK1γ3(h) (Homo sapiens, UniProt Q9Y6M4)
Description: as §1, §2

PAK3(h) = PAK3(h) (Homo sapiens, UniProt O75914)
Description: as §1, §2

PAK6(h) = PAK6(h) (Homo sapiens, UniProt Q9NQU5)
Description: as §1, §2

PKA(h) = PKA(h) (Homo sapiens, UniProt P17612)
Description: as §1, §2

PAR-1Bα(h) = target: T6, PAR-1Bα(h) (Homo sapiens, UniProt Q7KZI7)
T6 sequence (Q7KZI7 1-725 isoform Q7KZI7-4): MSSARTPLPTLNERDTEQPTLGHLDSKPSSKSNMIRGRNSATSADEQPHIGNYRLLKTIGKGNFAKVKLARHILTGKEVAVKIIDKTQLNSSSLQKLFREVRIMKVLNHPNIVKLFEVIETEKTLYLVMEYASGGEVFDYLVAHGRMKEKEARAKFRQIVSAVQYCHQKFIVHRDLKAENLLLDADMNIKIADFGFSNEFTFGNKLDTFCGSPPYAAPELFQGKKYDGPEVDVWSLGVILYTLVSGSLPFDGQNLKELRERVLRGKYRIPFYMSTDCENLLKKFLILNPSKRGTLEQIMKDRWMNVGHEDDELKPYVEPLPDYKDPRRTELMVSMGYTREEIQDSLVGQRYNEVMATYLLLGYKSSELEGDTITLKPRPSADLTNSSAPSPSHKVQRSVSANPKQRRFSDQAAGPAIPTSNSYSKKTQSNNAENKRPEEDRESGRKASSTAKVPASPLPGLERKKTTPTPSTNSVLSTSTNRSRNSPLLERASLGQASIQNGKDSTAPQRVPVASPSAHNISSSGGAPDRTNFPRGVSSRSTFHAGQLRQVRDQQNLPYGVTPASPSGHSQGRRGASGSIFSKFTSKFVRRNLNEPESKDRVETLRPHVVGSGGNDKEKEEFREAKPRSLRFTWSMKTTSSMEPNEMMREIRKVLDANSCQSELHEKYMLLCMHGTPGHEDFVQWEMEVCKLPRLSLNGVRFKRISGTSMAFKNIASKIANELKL
Description: as §1, §2

HIPK3(h) = target: T7, HIPK3(h) (Homo sapiens, UniProt Q9H422)
T7 construct: purchased Millipore
Description: as §1, §2

JAK2(h) = target: T8, JAK2(h) (Homo sapiens, UniProt O60674)
T8 construct: purchased Millipore
Description: as §1, §2

Aurora-A(h) = target: T9, Aurora-A(h) (Homo sapiens, UniProt O14965)
T9 sequence (O14965 1-403): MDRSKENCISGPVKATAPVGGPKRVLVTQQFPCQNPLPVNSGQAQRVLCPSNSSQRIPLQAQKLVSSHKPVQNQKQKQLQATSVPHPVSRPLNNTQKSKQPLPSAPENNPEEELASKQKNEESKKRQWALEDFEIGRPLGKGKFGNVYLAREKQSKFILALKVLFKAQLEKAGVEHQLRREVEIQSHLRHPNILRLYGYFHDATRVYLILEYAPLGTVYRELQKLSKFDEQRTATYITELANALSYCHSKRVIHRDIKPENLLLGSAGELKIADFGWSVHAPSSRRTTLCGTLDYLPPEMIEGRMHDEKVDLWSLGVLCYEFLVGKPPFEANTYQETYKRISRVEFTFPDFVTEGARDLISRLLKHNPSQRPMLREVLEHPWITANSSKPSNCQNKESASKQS
Description: as §1, §2

Abl(H396P)(h) = Abl(H396P)(h) (Homo sapiens, UniProt P00519, H396P)
Description: as §1, §2

Abl(T315I)(h) = Abl(T315I)(h) (Homo sapiens, UniProt P00519, T315I)
Description: as §1, §2

Lck(h) = Lck(h) (Homo sapiens, UniProt P06239)
Description: as §1, §2

Abl(M351T)(h) = Abl(M351T)(h) (Homo sapiens, UniProt P00519, M351T)
Description: as §1, §2

PAK5(h) = PAK5(h) (Homo sapiens, UniProt Q9P286)
Description: as §1, §2

c-RAF(h) = c-RAF(h) (Homo sapiens, UniProt P04049)
Description: as §1, §2

HRRIKAWLKKIKALARQLGVAA (Mammalian) [MMI-0500]
Plk1(h) % activity (Plk1(h)): 104%
JNK1α1(h) % activity (JNK1α1(h)): 109%
Fgr(h) % activity (Fgr(h)): 109%
CLK2(h) % activity (CLK2(h)): 116%
FGFR1(V561M)(h) % activity (FGFR1(V561M)(h)): 113%
GRK5(h) % activity (GRK5(h)): 116%
MKK7β(h) % activity (MKK7β(h)): 102%
IGF-1R(h) % activity (IGF-1R(h)): 117%
CK1γ2(h) % activity (CK1γ2(h)): 119%
CK1γ1(h) % activity (CK1γ1(h)): 109%
FGFR2(N549H)(h) % activity (FGFR2(N549H)(h)): 105%
CK2α2(h) % activity (CK2α2(h)): 103%
CK1γ3(h) % activity (CK1γ3(h)): 114%
PAK3(h) % activity (PAK3(h)): 102%
PAK6(h) % activity (PAK6(h)): 107%

KAFAKLAARLYRKALARQLGVAA [MMI-0400]
PKA(h) % activity (PKA(h)): 119%
Plk1(h) % activity (Plk1(h)): 119%
PAR-1Bα(h) % activity (PAR-1Bα(h)): 109%
CLK2(h) % activity (CLK2(h)): 116%
HIPK3(h) % activity (HIPK3(h)): 105%
JAK2(h) % activity (JAK2(h)): 119%
Aurora-A(h) % activity (Aurora-A(h)): 119%
Abl(H396P)(h) % activity (Abl(H396P)(h)): 105%
Abl(T315I)(h) % activity (Abl(T315I)(h)): 105%
CK1γ2(h) % activity (CK1γ2(h)): 114%
CK1γ1(h) % activity (CK1γ1(h)): 116%
FGFR2(N549H)(h) % activity (FGFR2(N549H)(h)): 112%
Lck(h) % activity (Lck(h)): 228%
CK1γ3(h) % activity (CK1γ3(h)): 115%
PAK3(h) % activity (PAK3(h)): 121%
Abl(M351T)(h) % activity (Abl(M351T)(h)): 121%
PAK5(h) % activity (PAK5(h)): 117%
c-RAF(h) % activity (c-RAF(h)): 102%
